Molecular target: T1, human mGluR2 (hmGluR2) (Homo sapiens, UniProt Q14416)
T1 construct: expressed in transfected cells; host or cells: HEK-293 cells, transient co-transfection by electroporation
Test: Ca++ functional assay, human mGluR2 transiently over-expressed in HEK-293 cells (agonist and negative allosteric modulator modes)
Assay type: cell-based
Experimental: Example 127: Human mGluR2 and mGluR3 Evaluation Using Ca^++ Functional Assay
Examples of the present invention were tested successively for their agonist and negative allosteric modulator activities on human mGluR2 (hmGluR2) and mGluR3 (hmGluR3) transiently over-expressed in HEK-293 cells. Compounds exert agonist activity if, by themselves in absence of glutamate, they are able to activate hmGluR2 or hmGluR3; and they exert negative allosteric modulator activity if they decrease the action of glutamate (which is employed at its EC80 concentration).
Cell Culture and Transfection […]
Receptor activity is detected by changes in intracellular calcium measured using the fluorescent Ca^2+ sensitive dye, Fluo4AM (Molecular Probes).
On the day of the assay, culture medium is aspirated and replaced during 3 hours by medium without serum supplemented with 1% Glutamax, 1% Penicillin/Streptomycin and 1% non-essential amino acids. […] Addition of compounds and intracellular Ca^2+ measurements (excitation 485 nm, emission 525 nm) are performed by the fluorescence microplate reader FLIPRTetra (Molecular Devices).
Agonist and negative allosteric modulator activities of compounds are consecutively evaluated on the same cell plate. […] Then, cells are stimulated by an EC80 glutamate concentration and fluorescence is recorded for additional 3 minutes. […]

Chains of the proteins cited; added tags and fusions are not shown. Residues count along the entry.
UniProt Q14416, 19-872: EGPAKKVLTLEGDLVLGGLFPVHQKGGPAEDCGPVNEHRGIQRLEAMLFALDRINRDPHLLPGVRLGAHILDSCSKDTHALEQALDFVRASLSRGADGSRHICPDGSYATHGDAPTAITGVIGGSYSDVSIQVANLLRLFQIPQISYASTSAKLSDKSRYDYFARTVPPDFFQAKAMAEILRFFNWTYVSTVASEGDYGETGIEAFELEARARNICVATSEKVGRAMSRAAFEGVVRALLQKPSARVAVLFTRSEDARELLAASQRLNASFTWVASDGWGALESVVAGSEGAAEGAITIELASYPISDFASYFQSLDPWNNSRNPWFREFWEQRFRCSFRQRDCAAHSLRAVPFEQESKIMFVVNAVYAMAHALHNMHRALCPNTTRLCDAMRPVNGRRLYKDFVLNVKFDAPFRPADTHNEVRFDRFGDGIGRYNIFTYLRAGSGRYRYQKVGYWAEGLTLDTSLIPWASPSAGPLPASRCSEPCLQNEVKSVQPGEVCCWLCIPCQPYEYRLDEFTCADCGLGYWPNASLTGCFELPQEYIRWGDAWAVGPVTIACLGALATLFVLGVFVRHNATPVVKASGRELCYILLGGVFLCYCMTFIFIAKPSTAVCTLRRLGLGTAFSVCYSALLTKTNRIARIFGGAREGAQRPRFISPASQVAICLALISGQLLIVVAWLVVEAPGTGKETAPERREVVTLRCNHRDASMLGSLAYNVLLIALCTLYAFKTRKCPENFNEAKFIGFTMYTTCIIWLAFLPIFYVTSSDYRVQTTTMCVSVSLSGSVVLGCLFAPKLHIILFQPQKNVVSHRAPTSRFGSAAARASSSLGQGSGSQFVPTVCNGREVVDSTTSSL

Cn1c(=O)c2ccc(-c3ccc(N)nc3)cc2n2nc(-c3ccccc3)cc12 [A, reference compound]
IC50: < 0.1 µM

Cn1c(=O)c2ccc(-c3cccc(S(N)(=O)=O)c3)cc2n2nc(-c3ccccc3)cc12 [B, reference compound]
IC50: < 0.1 µM
